The values that follow come from patent publication US12558424B2, “T cells having enhanced anti-tumor activity” (The United States of America, as represented by the …, priority 2019, dated 2026).

The test system of assay [1] is murine splenic CD8+ T cells. Briefly: LC-MS metabolomics of intracellular metabolites. The format is cell-based, mouse. How it is done: (§1) Except where otherwise specified, all experiments were performed with murine splenic CD8+ T cells isolated with STEMCELL Technologies EasySep™ Mouse CD8+ T Cell Isolation Kit (catalog #19853). Following isolation, cells were resuspended at 1×10^6 cells/ml in T cell culture medium: RPMI 1640 medium (Thermo 11875093) containing 10% fetal bovine serum (FBS), 1× Glutamax (Life Technologies #35050-061), 1 mM sodium pyruvate, 0.1% β-mercaptoethanol, and penicillin/streptomycin. Cells were plated in 24-well tissue culture plates precoated with mouse anti-CD3 (2 μg/ml) and cultured with soluble mouse anti-CD28 (2 μg/ml) for 48 h. After incubation, cells were pooled, washed twice in media, and re-plated at 1×10^6 cells/ml. Cells were stimulated without cytokine or with 100 IU/ml human IL-2 or 100 ng/ml mouse IL-21. Unless otherwise specified, cells were stimulated for 48 h before being harvested. Where noted, cells were treated (1 μM) with a novel, pyrazole-based LDH inhibitor (NCI-737, herein denoted as NCI-737) that was developed under the auspices of the NCI Experimental Therapeutics Program 29. NCI-737 was added at the time of anti-CD3+ anti-CD28 treatment and replenished after cells were washed and replated in either IL-2 or IL-21, as indicated.
CD8+ T cells were isolated from 6-week old C57BL/6 mouse spleens (StemCell #19853), activated for 48 h with anti-CD3+anti-CD28, washed, and replated for 48 h in medium alone or medium supplemented with human IL-2 or mouse IL-21. Cells were then washed with media supplemented with dialyzed fetal bovine serum (“FBS”) (Thermo-Fischer #A3382001), replated in RPMI 1640 medium containing 10% dialyzed FBS, 1× Glutamax (ThermoFisher #35050061), 1 mM sodium pyruvate, 0.1% β-mercaptoethanol, and penicillin-streptomycin, and re-stimulated with same cytokine treatment for 5 h. […] Cell extracts were analyzed using a quadrupole-orbitrap mass spectrometer (Q Exactive, Thermo Fisher Scientific, San Jose, CA) coupled to hydrophilic interaction chromatography via electrospray ionization. […] Data were analyzed using EL-MAVEN software. […]

For another assay, the system named is mouse CD8+ T cells. Briefly: Seahorse mitochondrial stress test (OCR, ECAR, SRC), mouse CD8+ T cells. The format is cell-based. As for the experimental part:
as §1
(§2) The oxygen consumption rates (OCR) and extracellular acidification rates (ECAR) were recorded using a Seahorse XFe96 Analyzer (Agilent). Cells were washed and resuspended in Agilent XF Assay Medium supplemented with 25 mM glucose, 1 mM sodium pyruvate, and 2 mM L-Glutamine. Cells were plated on Seahorse Assay plates at 0.2×10^6 cells/well and during the assay were exposed to 1 μM oligomycin, 1.5 μM trifluoromethoxy carbonylcyanide phenylhydrazone (“FCCP”), 100 nM rotenone, and 1 μM antimycin A, as indicated.

A further assay has as its system human CD8+ T cells. Briefly: Seahorse mitochondrial stress test (OCR, ECAR, SRC), human CD8+ T cells. The format is cell-based. How it is done: as §2
Assay [2] relates to murine splenic CD8+ T cells. Briefly: RNA-Seq gene expression. The format is cell-based, mouse. Conditions: vs no cytokine. How it is done:
as §1, with “Unless otherwise specified, cells were stimulated for 48 h before being harvested. Where noted, cells were treated (1 μM) with a novel, pyrazole-based LDH inhibitor (NCI-737, herein denoted as NCI-737) that was developed under the auspices of the NCI Experimental Therapeutics Program 29. NCI-737 was added at the time of anti-CD3+ anti-CD28 treatment and replenished after cells were washed and replated in either IL-2 or IL-21, as indicated.” left out
Total RNA was extracted using an RNA miniprep kit (Zymo Research), and 500 ng RNA was used for library preparation. […] After quantification by Qubit (Invitrogen), barcoded samples were mixed and sequenced on an Illumina HiSeq3000 platform. Sequenced reads (50 bp, single end) were obtained with the Illumina CASAVA pipeline and mapped to the mouse genome mm10 (GRCm38, December 2011) using Bowtie 2.2.649 and Tophat 2.2.149. Only uniquely mapped reads were retained. Raw counts that fell on exons were calculated and normalized by using RPKM (Reads Per Kilobase per Million mapped reads). […]

For another assay, the system named is pmel-1 CD8+ T cells. Briefly: Flow cytometry of pmel-1 CD8+ T cell differentiation (CD44, CD62L, Sca-1). Conditions: pmel-1 CD8+ T cells activated with anti-CD3+anti-CD28. The format is cell-based, mouse.
Another assay relates to B16 melanoma (B16KVP). Briefly: Mouse tumor model and adoptive transfer. The format is in vivo. Conditions: cells cultured with cytokine alone.
In assay [3] the test system is murine splenic CD8+ T cells. Briefly: Electron microscopy of mitochondrial morphology. Conditions: 48 h culture after anti-CD3+anti-CD28 activation. The format is cell-based, mouse. As for the experimental part: as §1, with “indicated. […]” for “indicated.”
The subject of assay [4] is murine splenic CD8+ T cells. Briefly: Cellular expansion, CFSE dilution and viability. The conditions noted are these: 48 h treatment; vs no cytokine. The format is cell-based, mouse. How it is done:
as §1, with “Where noted, cells were treated (1 μM) with a novel, pyrazole-based LDH inhibitor (NCI-737, herein denoted as NCI-737) that was developed under the auspices of the NCI Experimental Therapeutics Program 29. NCI-737 was added at the time of anti-CD3+ anti-CD28 treatment and replenished after cells were washed and replated in either IL-2 or IL-21, as indicated.” left out
Live cells were stained in FACS buffer containing 0.5% BSA and 0.02% sodium azide in PBS. […] After staining, cells were washed and analyzed on a BD LSRFortessa™ X-20 cytometer. For glucose uptake experiments, cultured cells were starved for 7 h in glucose-free media, then treated with a fluorescently-labeled glucose derivative (Cayman #600471) for 10 min, and assessed using a flow cytometer. […]

Assay [5] relates to murine splenic CD8+ T cells. Briefly: Glucose uptake by flow cytometry (fluorescently-labeled glucose derivative). The format is cell-based, mouse. The conditions noted are these: vs cells treated with NC or IL-21. As for the experimental part: Live cells were stained in FACS buffer containing 0.5% BSA and 0.02% sodium azide in PBS. Cells were stained at 4° C. for 30 min in darkness with anti-CD8 (53-6.7, BioLegend), anti-CD62L (MEL-14, BioLegend), anti-CD44 (IM7, BD Pharmingen), anti-Sca-1 (D7, Biolegend), and Live/Dead aqua (Invitrogen). After staining, cells were washed and analyzed on a BD LSRFortessa™ X-20 cytometer. For glucose uptake experiments, cultured cells were starved for 7 h in glucose-free media, then treated with a fluorescently-labeled glucose derivative (Cayman #600471) for 10 min, and assessed using a flow cytometer. All analyses were done using FlowJo software (TreeStar).
For orientation: A flow cytometer gives signals particle by particle.

Assay [6] relates to murine splenic CD8+ T cells. Briefly: Western blotting of LDHA and phosphorylated PDH. The format is cell-based, mouse. As for the experimental part: After 3 days of stimulation with medium, IL-2, or IL-21, cells were pelleted at 1500 rpm for 5 min, washed with ice cold PBS, resuspended in radioimmunoprecipitation assay buffer, and frozen on dry ice. Frozen lysates were thawed on ice, cell debris was removed by centrifuging at 13,000 rpm for 15 min at 4° C., and supernatant was collected. Protein was quantified using the DCTM Protein Assay Kit (Bio-Rad #5000111) and 20 μg of supernatant protein was loaded into the wells of a NuPAGE™ 4-12% Bis-Tris Gel (Invitrogen #NP0335BOX) and electrophoresed at 100 V in NuPAGE MOPS SDS Running Buffer (Life Technologies #1908733). Proteins were transferred onto a 0.45 μm polyvinylidene difluoride membrane using an XCell II™ Blot Module (Invitrogen #EI9051) run at 30 V for 1 h in NuPAGE Transfer Buffer (Life Technologies #1904537). Following transfer, membranes were blocked by shaking for 1 h at room temperature with 5% non-fat dry milk in TBS. Blots were probed overnight at 4° C. with primary antibodies dissolved in 5% non-fat dry milk in TBS+0.1% Tween 20 (TBSt). The primary antibodies used were as follows: anti-human or anti-mouse recombinant LDHA purified sheep IgG (R & D Systems #AF7304), anti-pyruvate dehydrogenase E1-alpha subunit (phospho S293) rabbit polyclonal antibody (Abcam #ab92696), and anti-β-actin mouse monoclonal antibody clone AC-15 (Sigma #A1978). […]
For orientation: Immunoblotting shows a protein as a band on a membrane.

With “IL-2: cytokine; 100 IU/ml human IL-2 used to culture CD8+ T cells”, the “intracellular glucose (LC-MS)” value in [1] (among NC, IL-2, IL-21) is “lowest intracellular glucose”. Further, in [1] (cytokine alone), the lactate level entry was “high levels” and the pyruvate level result is “high levels”. In the assay on mouse CD8+ T cells (cytokine 48 h), the “mitochondrial spare respiratory capacity (SRC)” value is “minimal”. Moreover, in the assay on mouse CD8+ T cells (cytokine 48 h, IL-2 vs IL-21), the “basal oxygen consumption rate (OCR)” value was “higher” and the “extracellular acidification rate (ECAR)” value is recorded as “higher”. Besides, the “OCR at time point zero” value with mouse CD8+ T cells (cytokine stimulation 4 h) is recorded as “roughly equal”. In addition, the “OCR value at time 0” value in the assay with mouse CD8+ T cells (cytokine stimulation 12 h) is reported as “approximately 250 pmol/min”. In the assay on mouse CD8+ T cells (cytokine stimulation 24 h), the “OCR value at time 0” value was “above 200 pmol/min”. Also, the “OCR value at time 0” value with mouse CD8+ T cells (cytokine stimulation 48 h) is listed as “above 100 pmol/min”. Also, the “OCR value upon injection with FCCP” value in the assay on mouse CD8+ T cells (rank among IL-2, IL-2+NCI-737, IL-21, IL-21+NCI-737) is reported as “lowest OCR values”. Moreover, in the assay on human CD8+ T cells (IL-2 compared to IL-21), the ECAR entry was “higher” and the OCR entry is given as “higher”. For the same substance, the “OCR value at time 0” value with human CD8+ T cells (rank among no cytokine, IL-21, IL-2) is “highest OCR value”. The “expression of key glycolytic genes (Slc2a1, Pgk1, Pfkm, Ldha)” value in assay [2] is listed as “induced expression of key glycolytic genes”. For the same substance, in the assay with pmel-1 CD8+ T cells, the “differentiation of CD44hiCD62Llo effector memory cells” value is on record as “more potent than IL-21”. In addition, the “antitumor effect of adoptively transferred pmel-1 CD8+ T cells” value with B16 melanoma (B16KVP) is reported as “conferred therapeutic advantage”. Besides, the mitochondrial morphology result in [3] is listed as “large dysmorphic mitochondria with loosely structured cristae”. Besides, in assay [4], the “proliferation (fold-expansion, CFSE dilution)” value was “even greater expansion” and the viability result was “markedly higher viability”. Further, in assay [5], the glucose uptake capacity result was “higher glucose uptake capacity”. In addition, the LDHA protein entry in assay [6] (IL-2 vs IL-21-treated cells) was “higher LDHA than IL-21-treated cells”. In [6] (IL-2 vs IL-21 and NC-treated cells), the “inactive, phosphorylated form of PDH” value was “higher”.
